From US11083725B2 (priority 2014, dated 2021)

Tested on: NHBE cells
Test: Biolog metabolic array: substrate use by NHBE cells with or without CA09 infection
Assay type: cell-based, human
Details: Control (uninfected) NHBE cells

For `NCCCC(=O)O` [g-Amino Butyric Acid], the “590 nm absorbance normalized to zero hour (substrate use), 2 hr” value was 1.36.
